According to IntAct's records for PubMed 26342079:

B1: LYR motif-containing protein 4 (Homo sapiens), Q9HD34 (parent)
chain: MAASSRAQVLSLYRAMLRESKRFSAYNYRTYAVRRIRDAFRENKNVKDPVEIQTLVNKAKRDLGVIRRQVHIGQLYSTDKLIIENRDMPRT
partner: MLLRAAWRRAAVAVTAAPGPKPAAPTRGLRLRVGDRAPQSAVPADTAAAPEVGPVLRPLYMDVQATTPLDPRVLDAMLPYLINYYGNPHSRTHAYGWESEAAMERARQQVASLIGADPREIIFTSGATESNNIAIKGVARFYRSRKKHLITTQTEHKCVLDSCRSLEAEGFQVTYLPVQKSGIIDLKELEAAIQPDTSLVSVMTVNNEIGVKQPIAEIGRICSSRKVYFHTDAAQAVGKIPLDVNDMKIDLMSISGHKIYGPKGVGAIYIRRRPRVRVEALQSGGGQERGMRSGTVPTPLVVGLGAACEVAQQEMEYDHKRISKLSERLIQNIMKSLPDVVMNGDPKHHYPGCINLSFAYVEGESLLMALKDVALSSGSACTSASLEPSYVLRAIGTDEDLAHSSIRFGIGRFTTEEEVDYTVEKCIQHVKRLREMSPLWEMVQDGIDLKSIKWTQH

Tests used:
Settings in all cases: with nfs1_human NFS1, Q9Y697
[1] = variants of: B1
[2] = variants of: B1; remark: listed apart in the source
[3] = variants of: B1; remark: listed apart in the source

Row | Variant | effect of a mutation on the interaction [1] | effect of a mutation on the interaction [2] | effect of a mutation on the interaction [3]
1 | MAASSRAQVLSLYRAMLRESKRFSAYNYRTYAVRRIRDAFRENKNVKDPVEIQTLVNKAKRDLGVIRRQVHIGQLYSTDKAIIENRDMPRT | decreasing interaction strength | disrupting interaction strength | 
2 | MAASSRAQVLSLYRAMLRESKRFSAYNYRTYAVRRIRDAFRENKNVKDPVEIQTLVNKAKRDLGVIRRQVHIGQLASTDKLIIENRDMPRT | decreasing interaction strength | disrupting interaction strength | 
3 | MAASSRAQVLSLYRAMLRESKRFSAYNYRTYAVRRIRDAFRENKNVKDPVEIQTLVNKAKRDLGVIRRQVHAGQLYSTDKLIIENRDMPRT | decreasing interaction strength | disrupting interaction strength | 
4 | MAASSRAQVLSLYRAMLRESKRFSAYNYRTYAVRRIRDAARENKNVKDPVEIQTLVNKAKRDLGVIRRQVHIGQLYSTDKLIIENRDMPRT | decreasing interaction strength | disrupting interaction strength | 
5 | MAASSRAQVLSLYRAMLRESKRFSAYNYRTYAVRRIRDAFRENKNVKDPVEIQTLVNKAKRDLGVIRLQVHIGQLYSTDKLIIENRDMPRT |  |  | decreasing interaction strength
6 | MAASSRAQVLSLYRAMLRESKRFSAYNYRTYAVRRIRDAFRENKNVKDPVEIQTLVNKAKRDLGVIRAQVHIGQLYSTDKLIIENRDMPRT | decreasing interaction strength | disrupting interaction strength | 

Continued, values first:

Row | effect of a mutation on the interaction [1] | effect of a mutation on the interaction [2] | effect of a mutation on the interaction [3] | Variant
7 | decreasing interaction strength |  |  | MAASSRAQVLSLYRAMLRESKRFSAYNYRTYAVRRIRDAFRENKNVKDPVEIQTLVNKAKRDAGVIRRQVHIGQLYSTDKLIIENRDMPRT
8 | decreasing interaction strength | disrupting interaction strength |  | MAASSRAQVLSLYRAMLRESKRFSAYNYRTYAVRRIRDAFRENKNVKDPVEIQTLVNKAKRDLGVIRRQVHIGQLYSTDKLIIANRDMPRT
9 | decreasing interaction strength | disrupting interaction strength |  | MAASSRAQVLSLYRAMLRESKRFSAYNYRTYAVRRIRDAFRENKNVKDPVEIQTLVNKAKRDLGVIRRAVHIGQLYSTDKLIIENRDMPRT
